# Assay results taken from patent publication US20260232830A1, “ANTIGEN BINDING MOLECULE SPECIFICALLY BINDING TO EGFR AND MUC1, DRUG CONJUGATE THEREOF, AND MEDICAL USE THEREOF” (Jiangsu Hengrui Pharmaceuticals Co., Ltd., priority 2023, published 2026).
# Chains of the proteins cited; added tags and fusions are not shown. A line that says so, or that is headed by a name, gives the form on record, which may keep a tag or linker.
# UniProt P15941, with tags, fused parts or gaps: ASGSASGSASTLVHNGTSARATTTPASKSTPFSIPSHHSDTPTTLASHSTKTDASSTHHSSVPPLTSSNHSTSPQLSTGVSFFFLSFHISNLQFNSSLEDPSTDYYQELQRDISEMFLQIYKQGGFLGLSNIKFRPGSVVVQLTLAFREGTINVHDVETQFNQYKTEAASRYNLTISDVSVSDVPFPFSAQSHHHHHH
# Test system: CHOK1-cyno-MUC1-C cells
# Test: FACS-based determination of affinity of chimeric and humanized anti-MUC1-C antibodies
# Assay type: binding
# Set-up: key: “+” means that there was binding; “−” means that there was no binding
# Conditions: Table 19-4
row,Molecule,Qualitative determination
1,F4-18-H5L2: humanized antibody of F4-18: huF4-18VH5 + huF4-18VL2 (antibody) heavy: EVQLVQSGAEVVKPGASVKMSCKTSGYTFTSYGINWVRQRPGQGLEWIGYIYLGSDYTEYNEKFKGRVTLTSDTSASTAYMELSSLRSEDTAVYYCARSAGSLFGYWGQGTLVTVSSASTKGPSVFPLAPSSKSTSGGTAALGCLVKDYFPEPVTVSWNSGALTSGVHTFPAVLQSSGLYSLSSVVTVPSSSLGTQTYICNVNHKPSNTKVDKKV[human IgG1 Fc not spelt out] light: DIQMTQSPSSLSASVGDRVTITCRASQDIGITLNWLQQKPGKAPKRLIYATSSLDSGVPSRFSGSRSGTDYTLTISSLQPEDFATYYCLQYASSPYTFGGGTKVEIKRTVAAPSVFIFPPSDEQLKSGTASVVCLLNNFYPREAKVQWKVDNALQSGNSQESVTEQDSKDSTYSLSSTLTLSKADYEKHKVYACEVTHQGLSSPVTKSFNRGEC,+
2,F4-18-H1L3: humanized antibody of F4-18: huF4-18VH1 + huF4-18VL3 (antibody) heavy: EVQLVQSGAEVKKPGASVKVSCKASGYTFTSYGINWVRQAPGQRLEWMGYIYLGSDYTEYNEKFKGRVTLTSDTSASTAYMELSSLRSEDTAVYYCARSAGSLFAYWGQGTLVTVSSASTKGPSVFPLAPSSKSTSGGTAALGCLVKDYFPEPVTVSWNSGALTSGVHTFPAVLQSSGLYSLSSVVTVPSSSLGTQTYICNVNHKPSNTKVDKKV[human IgG1 Fc not spelt out] light: DIQLTQSPSSLSASVGDRVTITCRASQDIGITLNWLQQKPGKAIKRLIYATSSLDSGVPSRFSGSRSGSDYTLTISSLQPEDFATYYCLQYASSPYTFGGGTKVEIKRTVAAPSVFIFPPSDEQLKSGTASVVCLLNNFYPREAKVQWKVDNALQSGNSQESVTEQDSKDSTYSLSSTLTLSKADYEKHKVYACEVTHQGLSSPVTKSFNRGEC,+
3,F4-18-H5L4: humanized antibody of F4-18: huF4-18VH5 + huF4-18VL4 (antibody) heavy: EVQLVQSGAEVVKPGASVKMSCKTSGYTFTSYGINWVRQRPGQGLEWIGYIYLGSDYTEYNEKFKGRVTLTSDTSASTAYMELSSLRSEDTAVYYCARSAGSLFGYWGQGTLVTVSSASTKGPSVFPLAPSSKSTSGGTAALGCLVKDYFPEPVTVSWNSGALTSGVHTFPAVLQSSGLYSLSSVVTVPSSSLGTQTYICNVNHKPSNTKVDKKV[human IgG1 Fc not spelt out] light: DIQLTQSPSSLSASVGDRVTITCRASQDIGITLNWLQQEPGGAIKRLIYATSSLDSGVPKRFSGSRSGSDYTLTISSLQPEDFATYYCLQYASSPYTFGGGTKVEIKRTVAAPSVFIFPPSDEQLKSGTASVVCLLNNFYPREAKVQWKVDNALQSGNSQESVTEQDSKDSTYSLSSTLTLSKADYEKHKVYACEVTHQGLSSPVTKSFNRGEC,+
4,F4-18-H3L3: humanized antibody of F4-18: huF4-18VH3 + huF4-18VL3 (antibody) heavy: EVQLVQSGAEVVKPGASVKMSCKTSGYTFTSYGINWVRQRPGQGLEWIGYIYLGSDYTEYNEKFKGRVTLTSDTSASTAYMELSSLRSEDTAVYYCARSAGSLFAYWGQGTLVTVSSASTKGPSVFPLAPSSKSTSGGTAALGCLVKDYFPEPVTVSWNSGALTSGVHTFPAVLQSSGLYSLSSVVTVPSSSLGTQTYICNVNHKPSNTKVDKKV[human IgG1 Fc not spelt out] light: DIQLTQSPSSLSASVGDRVTITCRASQDIGITLNWLQQKPGKAIKRLIYATSSLDSGVPSRFSGSRSGSDYTLTISSLQPEDFATYYCLQYASSPYTFGGGTKVEIKRTVAAPSVFIFPPSDEQLKSGTASVVCLLNNFYPREAKVQWKVDNALQSGNSQESVTEQDSKDSTYSLSSTLTLSKADYEKHKVYACEVTHQGLSSPVTKSFNRGEC,+
5,F4-18-H3L4: humanized antibody of F4-18: huF4-18VH3 + huF4-18VL4 (antibody) heavy: EVQLVQSGAEVVKPGASVKMSCKTSGYTFTSYGINWVRQRPGQGLEWIGYIYLGSDYTEYNEKFKGRVTLTSDTSASTAYMELSSLRSEDTAVYYCARSAGSLFAYWGQGTLVTVSSASTKGPSVFPLAPSSKSTSGGTAALGCLVKDYFPEPVTVSWNSGALTSGVHTFPAVLQSSGLYSLSSVVTVPSSSLGTQTYICNVNHKPSNTKVDKKV[human IgG1 Fc not spelt out] light: DIQLTQSPSSLSASVGDRVTITCRASQDIGITLNWLQQEPGGAIKRLIYATSSLDSGVPKRFSGSRSGSDYTLTISSLQPEDFATYYCLQYASSPYTFGGGTKVEIKRTVAAPSVFIFPPSDEQLKSGTASVVCLLNNFYPREAKVQWKVDNALQSGNSQESVTEQDSKDSTYSLSSTLTLSKADYEKHKVYACEVTHQGLSSPVTKSFNRGEC,+

# Molecular target: T1, human MUC1-C-L-his antigen (Homo sapiens, UniProt P15941)
# T1 construct: made in house; host or cells: 293 cells (transient, pTT5 vector)
# Test: Determination of affinity of anti-MUC1-C antibodies using Biacore
# Conditions: Biacore 8K, antibody captured on Protein A chip, 1:1 binding model
# Method: • 1. Instrument: Biacore 8K, Cytiva • 2. Material: Protein A biosensor chip (Cat. #29127556, Cytiva) • 3.
# The affinity of the antibodies of the present disclosure for the human MUC1-C-L-His antigen was determined using a Biacore 8K instrument.
# Method: An antibody molecule was affinity-captured by a Protein A biosensor chip, and the antigen molecule, at a certain concentration, was then allowed to flow through the surface of the chip continuously for 180 s, followed by 600 s of natural dissociation. The reaction signals were detected in real time by the Biacore 8K instrument to obtain an association and dissociation curve. After the dissociation in each experimental cycle was complete, the biosensor chip was regenerated with 10 mM glycine-HCl (pH 1.5). Data fitting was performed using the Kinetics 1:1 binding model.
Molecule,ka [M⁻¹ s⁻¹],kd [s⁻¹]
F4-18-H5L3: humanized antibody of F4-18: huF4-18VH5 + huF4-18VL3 (antibody) heavy: EVQLVQSGAEVVKPGASVKMSCKTSGYTFTSYGINWVRQRPGQGLEWIGYIYLGSDYTEYNEKFKGRVTLTSDTSASTAYMELSSLRSEDTAVYYCARSAGSLFGYWGQGTLVTVSSASTKGPSVFPLAPSSKSTSGGTAALGCLVKDYFPEPVTVSWNSGALTSGVHTFPAVLQSSGLYSLSSVVTVPSSSLGTQTYICNVNHKPSNTKVDKKV[human IgG1 Fc not spelt out] light: DIQLTQSPSSLSASVGDRVTITCRASQDIGITLNWLQQKPGKAIKRLIYATSSLDSGVPSRFSGSRSGSDYTLTISSLQPEDFATYYCLQYASSPYTFGGGTKVEIKRTVAAPSVFIFPPSDEQLKSGTASVVCLLNNFYPREAKVQWKVDNALQSGNSQESVTEQDSKDSTYSLSSTLTLSKADYEKHKVYACEVTHQGLSSPVTKSFNRGEC,150000,0.00351
F4-18-H1L4: humanized antibody of F4-18: huF4-18VH1 + huF4-18VL4 (antibody) heavy: EVQLVQSGAEVKKPGASVKVSCKASGYTFTSYGINWVRQAPGQRLEWMGYIYLGSDYTEYNEKFKGRVTLTSDTSASTAYMELSSLRSEDTAVYYCARSAGSLFAYWGQGTLVTVSSASTKGPSVFPLAPSSKSTSGGTAALGCLVKDYFPEPVTVSWNSGALTSGVHTFPAVLQSSGLYSLSSVVTVPSSSLGTQTYICNVNHKPSNTKVDKKV[human IgG1 Fc not spelt out] light: DIQLTQSPSSLSASVGDRVTITCRASQDIGITLNWLQQEPGGAIKRLIYATSSLDSGVPKRFSGSRSGSDYTLTISSLQPEDFATYYCLQYASSPYTFGGGTKVEIKRTVAAPSVFIFPPSDEQLKSGTASVVCLLNNFYPREAKVQWKVDNALQSGNSQESVTEQDSKDSTYSLSSTLTLSKADYEKHKVYACEVTHQGLSSPVTKSFNRGEC,184000,0.000943
F4-18-H2L3: humanized antibody of F4-18: huF4-18VH2 + huF4-18VL3 (antibody) heavy: EVQLVQSGAEVKKPGASVKVSCKASGYTFTSYGINWVRQRPGQGLEWIGYIYLGSDYTEYNEKFKGRVTLTSDTSASTAYMELSSLRSEDTAVYYCARSAGSLFAYWGQGTLVTVSSASTKGPSVFPLAPSSKSTSGGTAALGCLVKDYFPEPVTVSWNSGALTSGVHTFPAVLQSSGLYSLSSVVTVPSSSLGTQTYICNVNHKPSNTKVDKKV[human IgG1 Fc not spelt out] light: DIQLTQSPSSLSASVGDRVTITCRASQDIGITLNWLQQKPGKAIKRLIYATSSLDSGVPSRFSGSRSGSDYTLTISSLQPEDFATYYCLQYASSPYTFGGGTKVEIKRTVAAPSVFIFPPSDEQLKSGTASVVCLLNNFYPREAKVQWKVDNALQSGNSQESVTEQDSKDSTYSLSSTLTLSKADYEKHKVYACEVTHQGLSSPVTKSFNRGEC,170000,0.000835
F4-18-H4L3: humanized antibody of F4-18: huF4-18VH4 + huF4-18VL3 (antibody) heavy: EVQLVQSGAEVVKPGASVKMSCKTSGYTFTSYGINWVRQRPGQGLEWIGYIYLGSDYTEYNEKFKGRVTLTSDTSASTAYMELSSLRSEDTAVYYCARSGGSLFAYWGQGTLVTVSSASTKGPSVFPLAPSSKSTSGGTAALGCLVKDYFPEPVTVSWNSGALTSGVHTFPAVLQSSGLYSLSSVVTVPSSSLGTQTYICNVNHKPSNTKVDKKV[human IgG1 Fc not spelt out] light: DIQLTQSPSSLSASVGDRVTITCRASQDIGITLNWLQQKPGKAIKRLIYATSSLDSGVPSRFSGSRSGSDYTLTISSLQPEDFATYYCLQYASSPYTFGGGTKVEIKRTVAAPSVFIFPPSDEQLKSGTASVVCLLNNFYPREAKVQWKVDNALQSGNSQESVTEQDSKDSTYSLSSTLTLSKADYEKHKVYACEVTHQGLSSPVTKSFNRGEC,200000,0.0015
F4-18-H2L2: humanized antibody of F4-18: huF4-18VH2 + huF4-18VL2 (antibody) heavy: EVQLVQSGAEVKKPGASVKVSCKASGYTFTSYGINWVRQRPGQGLEWIGYIYLGSDYTEYNEKFKGRVTLTSDTSASTAYMELSSLRSEDTAVYYCARSAGSLFAYWGQGTLVTVSSASTKGPSVFPLAPSSKSTSGGTAALGCLVKDYFPEPVTVSWNSGALTSGVHTFPAVLQSSGLYSLSSVVTVPSSSLGTQTYICNVNHKPSNTKVDKKV[human IgG1 Fc not spelt out] light: DIQMTQSPSSLSASVGDRVTITCRASQDIGITLNWLQQKPGKAPKRLIYATSSLDSGVPSRFSGSRSGTDYTLTISSLQPEDFATYYCLQYASSPYTFGGGTKVEIKRTVAAPSVFIFPPSDEQLKSGTASVVCLLNNFYPREAKVQWKVDNALQSGNSQESVTEQDSKDSTYSLSSTLTLSKADYEKHKVYACEVTHQGLSSPVTKSFNRGEC,131000,0.00343
